US6541450B1, “Parathyroid hormone analogues for the treatment of osteoporosis” (National Research Council of Canada, priority 1994, dated 2003)

Experiments:
[1] = test system: ovariectomized (OVX) Sprague-Dawley rats; assay: Anabolic activity in ovariectomized rat model, injections from 2nd to 8th week after OVX; type: in vivo; conditions: subcutaneously injected
Excerpt: A full description of the protocol is given in Rixon et al, J. Bone & Mineral Research 9, 1179-1189, 1994 and Whitfield et al Calcif. Tissue Int. 58, 81-87, 1996 incorporated herein by reference. Normal, Sham-OVX (ovariectomized), and OVX Sprague-Dawley rats (3 months-old; 255-260 g) were purchased from
Charles River Laboratories (St. Constant, QC). The rats were randomized into groups of 8 animals which received Purina rat chow and water ad libitum. There were no unscheduled deaths. The animals received 6, once-daily subcutaneous injections/week starting at the end of the second week after OVX, and ending at the end of the 8th week after OVX (i.e., 36 injections). Eight Sham-OVX and 8 OVX controls rats received 36 injections of vehicle (0.15 M NaCl containing 0.001N HCl) while 8 OVX rats received 0.6 nmole of fragment in vehicle/100 g of body weight). At the end of the 8th week after OVX, femurs were removed isolated, cleaned, and cut in half at mid-diaphysis and the proximal half was discarded. […]
The bone-building potencies of the fragments were assessed from the changes in the mean thicknesses (area/perimeter) of the trabeculae in the distal half-femurs from the variously treated animals. […] The mean trabecular thickness was measured using a M4 imaging system and bone morphometric software from Imaging Research Inc., (St. Catherines, ON, Canada). […]

[2] = test system: anesthetized female Sprague-Dawley rats; assay: Hypotensive effect, tail artery pressure in anaesthetized rats; conditions: for time to reduction of tail artery pressure: injection into a femoral vein; for dose of maximal hypotensive effect: rat, in vivo
[3] = test system: ovariectomized (OVX) Sprague-Dawley rats; conditions: literature; cited from earlier work
[4] = test system: ovariectomized (OVX) rats with severely depleted trabecular bone; assay: Bone restoration in OVX rats with severely depleted trabecular bone, treatment from 9 weeks after OVX; type: in vivo, rat
Excerpt: Doses were based upon dose-response data on hPTH(1-31)-NH2. […] By the end of the 9th week they had lost about 75% of their femoral trabecular bone mass. […] The fragment could also stimulate trabecular bone growth in much older rates. […] Accordingly, the dosage of 0.6 nmole/100 g of body weight was used in further tests.
In this second example of bone restoration, the abilities of the lactam fragments to restore severely depleted trabecular bone are compared. In this experiment, the 6-week program of once-daily injections of 0.6 nmole of peptide/100 g of body weight of young sexually mature rats was delayed until the end of the 9th week after OVX. At this time, 75% of their trabecular bone had been lost.

[5] = molecular target: T1, adenylyl cyclase, ROS 17/2 cells (Rattus norvegicus, UniProt P25961); assay: Adenylyl cyclase stimulation, [3H]-cyclic AMP production in ROS 17/2 cells; type: cell-based
T1 sequence (P25961 27-591): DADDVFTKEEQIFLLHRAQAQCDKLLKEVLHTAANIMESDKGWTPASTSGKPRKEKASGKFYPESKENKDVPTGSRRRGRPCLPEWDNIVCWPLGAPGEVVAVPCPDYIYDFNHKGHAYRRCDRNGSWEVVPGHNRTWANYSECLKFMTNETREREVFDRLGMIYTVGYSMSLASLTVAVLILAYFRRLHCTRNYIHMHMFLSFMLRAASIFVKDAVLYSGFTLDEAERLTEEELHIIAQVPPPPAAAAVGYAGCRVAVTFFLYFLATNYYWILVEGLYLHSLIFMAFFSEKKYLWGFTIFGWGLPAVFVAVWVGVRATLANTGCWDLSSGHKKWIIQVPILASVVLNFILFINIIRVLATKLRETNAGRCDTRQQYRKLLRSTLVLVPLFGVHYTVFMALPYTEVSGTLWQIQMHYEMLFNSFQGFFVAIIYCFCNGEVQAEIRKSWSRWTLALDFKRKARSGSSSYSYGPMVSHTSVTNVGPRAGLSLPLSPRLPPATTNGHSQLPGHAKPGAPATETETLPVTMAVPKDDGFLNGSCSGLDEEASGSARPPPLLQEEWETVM

[6] = intravenous, 0.8 nmol/100 g of body weight
[7] = subcutaneous, 0.8 nmol/100 g of body weight

AC-stimulating activity, comparison in words [5] | SMILES | osteogenic activity, in words [1] | time to reduction of tail artery pressure [2] | hypotensive action, in words ([2]; intravenous injection) | reduction of tail artery pressure [2, 6] [mm Hg] | time to maximum drop in tail artery pressure [2, 6] | dose of maximal hypotensive effect [2] | reduction of tail artery pressure [2, 7] [mm Hg] | restoration of bone loss in the ovariectomized rat model [3] | mean trabecular thickness ([4]; 1-year-old rats, predepleted 9 weeks after OVX, 36 injections of 0.6 nmole/100 g) | mean trabecular thickness ([4]; 3-months-old OVX rats, 9 weeks depletion, 36 injections of 0.8, 0.6, 0.4, 0.2 nmole/100 g) | hypotensive action, in words ([2]; subcutaneous injection)
stimulate AC as strongly as hPTH-(1-34) | CC[C@H](C)[C@H](NC(=O)[C@H](CCC(=O)O)NC(=O)[C@H](CO)NC(=O)[C@@H](NC(=O)[C@@H](N)CO)C(C)C)C(=O)N[C@@H](CCC(N)=O)C(=O)N[C@@H](CC(C)C)C(=O)N[C@@H](CCSC)C(=O)N[C@@H](Cc1c[nH]cn1)C(=O)N[C@@H](CC(N)=O)C(=O)N[C@@H](CC(C)C)C(=O)NCC(=O)N[C@@H](CCCCN)C(=O)N[C@@H](Cc1c[nH]cn1)C(=O)N[C@@H](CC(C)C)C(=O)N[C@@H](CC(N)=O)C(=O)N[C@@H](CO)C(=O)N[C@@H](CCSC)C(=O)N[C@@H](CCC(=O)O)C(=O)N[C@@H](CCCNC(=N)N)C(=O)N[C@H](C(=O)N[C@@H](CCC(=O)O)C(=O)N[C@@H](Cc1c[nH]c2ccccc12)C(=O)N[C@@H](CC(C)C)C(=O)N[C@@H](CCCNC(=N)N)C(=O)N[C@@H](CCCCN)C(=O)N[C@@H](CCCCN)C(=O)N[C@@H](CC(C)C)C(=O)N[C@@H](CCC(N)=O)C(=O)N[C@@H](CC(=O)O)C(=O)N[C@H](C(N)=O)C(C)C)C(C)C [compound 1, hPTH-(1-31)-NH2] | equally osteogenic | about 1 minute | potently hypotensive; also recorded: no significant difference; also recorded: dropped the pressure as much as hPTH-(1-34) | 51.6±3.3 | equally prompt | 0.8 nmol/100 g of body weight | 11.1±1.6 | fully active | significantly increase the mean trabecular thickness above the normal starting value | dose-dependent increase in the mean trabecular thicknesses | 
 | CC[C@H](C)[C@H](NC(=O)[C@H](CCC(=O)O)NC(=O)[C@H](CO)NC(=O)[C@@H](NC(=O)[C@@H](N)CO)C(C)C)C(=O)N[C@@H](CCC(N)=O)C(=O)N[C@@H](CC(C)C)C(=O)N[C@@H](CCSC)C(=O)N[C@@H](Cc1c[nH]cn1)C(=O)N[C@@H](CC(N)=O)C(=O)N[C@@H](CC(C)C)C(=O)NCC(=O)N[C@@H](CCCCN)C(=O)N[C@@H](Cc1c[nH]cn1)C(=O)N[C@@H](CC(C)C)C(=O)N[C@@H](CC(N)=O)C(=O)N[C@@H](CO)C(=O)N[C@@H](CCSC)C(=O)N[C@@H](CCC(=O)O)C(=O)N[C@@H](CCCNC(=N)N)C(=O)N[C@H](C(=O)N[C@@H](CCC(=O)O)C(=O)N[C@@H](Cc1c[nH]c2ccccc12)C(=O)N[C@@H](CC(C)C)C(=O)N[C@@H](CCCNC(=N)N)C(=O)N[C@@H](CCCCN)C(=O)N[C@@H](CCCCN)C(=O)N[C@@H](CC(C)C)C(=O)N[C@@H](CCC(N)=O)C(=O)N[C@@H](CC(=O)O)C(=O)N[C@H](C(=O)N[C@@H](Cc1c[nH]cn1)C(=O)N[C@@H](CC(N)=O)C(=O)N[C@@H](Cc1ccccc1)C(=O)O)C(C)C)C(C)C [hPTH-(1-34), reference compound] | significantly more osteogenic than the other two molecules; also recorded: strongest hypotensive and osteogenic actions | about 1 minute | no significant difference | 50.9±5.6 |  | 0.8 nmol/100 g of body weight | 27.9±3.6 |  |  |  | much more hypotensive; also recorded: at least twice as effective (P<0.01) as the other two molecules

Entries after “also recorded” stand apart in the source; their conditions may differ.
